# B1: v29452 humanized anti-NaPi2b antibody (antibody, human IgG1, kappa, V domains shown)
# Amino acid sequences for entries named in this document (tags omitted). Residues count along the entry.
# UniProt P01308, 25-54 limits assumed, chain 1 of 2: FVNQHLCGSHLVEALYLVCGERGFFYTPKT
# UniProt P01308, 90-110 limits assumed, chain 2 of 2: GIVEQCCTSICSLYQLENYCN
# VH: QVQLVQSGAEVKKPGASVKVSCKASGFTFTSYNVHWVRQAPGQGLEWMGAISPGNGDLSYAQKFQGRVTMTRDTSTSTVYMELSSLRSEDTAVYYCARGRTGMGAVDYWGQGTLVTVSS
# VL: DVQMTQSPSSLSASVGDRVTITCRASQDVYSYLNWYQQKPGKAVKLLIYYTSRLQSGVPSRFSGSGSGTDYTLTISSLQPEDIATYYCQQYNIFPWTFGQGTKLEIKR
# Molecular target: Insulin (Sigma-Aldrich, 19278) (Homo sapiens (Human)) (UniProt P01308)
# Experiment: NS-ELISA, plate coated with insulin, mAb at 100 nM; ratio of signal to a buffer well
binder,measurement,value
B1,NS-ELISA binding score,1.03

# From patent US20250235548A1, “ANTIBODY-DRUG CONJUGATES TARGETING NAPI2B AND METHODS OF USE” (Zymeworks BC Inc., priority 2022, published 2025)
